Measurements taken from ChEMBL document CHEMBL1131485, “Novel potent and selective central 5-HT3 receptor ligands provided with different intrinsic efficacy. 1. Mapping the central 5-HT3 receptor binding site by arylpiperazine derivatives” (J Med Chem, 1998).

Biological target: T1, 5-hydroxytryptamine receptor 2C (Rattus norvegicus, UniProt P08909)
T1 sequence (P08909 whole entry): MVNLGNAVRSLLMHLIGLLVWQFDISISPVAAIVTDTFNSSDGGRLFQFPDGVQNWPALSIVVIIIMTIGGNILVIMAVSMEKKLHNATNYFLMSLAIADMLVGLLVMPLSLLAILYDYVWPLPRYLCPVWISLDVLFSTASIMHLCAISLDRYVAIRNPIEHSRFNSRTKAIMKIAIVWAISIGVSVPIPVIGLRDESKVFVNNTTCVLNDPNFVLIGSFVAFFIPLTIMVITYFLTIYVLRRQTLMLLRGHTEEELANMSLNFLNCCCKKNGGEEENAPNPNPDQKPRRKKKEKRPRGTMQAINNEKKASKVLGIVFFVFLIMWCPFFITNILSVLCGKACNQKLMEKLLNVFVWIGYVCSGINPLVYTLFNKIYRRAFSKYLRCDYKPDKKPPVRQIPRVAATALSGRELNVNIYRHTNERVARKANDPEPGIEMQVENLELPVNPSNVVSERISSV
Experiment: Ability to displace [3H]mesulergine bound to 5-hydroxytryptamine 2C receptor in rat cortex
Type: tissue-based
Method in brief: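 Cortical membranes from male Wistar rats in 50 mM Tris HCl pH 7.7 with 10 μM pargyline, 4 mM CaCl2 and 0.1% ascorbic acid. […] Nonspecific binding with 1 μM mianserine. Filtration assay. Ki from IC50 via Cheng-Prusoff. Mean ± SEM, n=3.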

CN1C[C@@H](NS(=O)(=O)N(C)C)C[C@@H]2c3cccc4c3c(cn4C)C[C@H]21 [MESULERGINE]
Ki: 730 pM
